Target: T1, EZH2 protein in LS174T cells (Homo sapiens, UniProt Q15910)
T1 construct: endogenous in cells; host or cells: LS174T
Assay: Proteolytic effect in colorectal cancer cells (Western blotting)
Format: cell-based
Method: After 72 hours of the treatment, the cells were collected and lysed using RIPA buffer (50 mM Tris, pH 7.5, 150 mM NaCl, 1% Triton X-100, 0.1% SDS, […], 0.5% deoxycholate, and protease inhibitor cocktail), followed by sonication (30 sec on/30 sec off, 5 cycles) to prepare a cell lysate.

Chains of the proteins cited; added tags and fusions are not shown.
UniProt Q15910, whole entry: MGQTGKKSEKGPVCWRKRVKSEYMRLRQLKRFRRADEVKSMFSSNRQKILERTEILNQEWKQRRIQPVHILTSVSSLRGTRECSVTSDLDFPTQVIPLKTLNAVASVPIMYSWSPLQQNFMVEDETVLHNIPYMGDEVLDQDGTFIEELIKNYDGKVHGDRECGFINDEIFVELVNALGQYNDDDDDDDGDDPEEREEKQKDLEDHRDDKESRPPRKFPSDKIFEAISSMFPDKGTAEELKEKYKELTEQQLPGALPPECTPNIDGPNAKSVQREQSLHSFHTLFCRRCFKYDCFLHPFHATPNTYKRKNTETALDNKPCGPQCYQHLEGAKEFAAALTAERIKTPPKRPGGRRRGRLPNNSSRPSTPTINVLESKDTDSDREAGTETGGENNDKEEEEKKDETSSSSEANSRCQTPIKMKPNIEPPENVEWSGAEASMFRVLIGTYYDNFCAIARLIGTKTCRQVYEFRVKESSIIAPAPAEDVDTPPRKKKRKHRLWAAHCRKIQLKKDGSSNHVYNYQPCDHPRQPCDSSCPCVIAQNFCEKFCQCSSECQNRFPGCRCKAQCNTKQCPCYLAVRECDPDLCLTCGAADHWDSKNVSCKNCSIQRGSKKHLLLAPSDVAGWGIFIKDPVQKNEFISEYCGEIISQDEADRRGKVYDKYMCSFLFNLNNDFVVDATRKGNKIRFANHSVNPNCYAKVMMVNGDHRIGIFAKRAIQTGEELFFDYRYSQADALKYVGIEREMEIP

CCN(c1cc(-c2ccc(CN3CCN(CC(=O)NCCCCCOCCOCCC(=O)N[C@H](C(=O)N4C[C@H](O)C[C@H]4C(=O)NCc4ccc(-c5scnc5C)cc4)C(C)(C)C)CC3)cc2)cc(C(=O)NCc2c(C)cc(C)[nH]c2=O)c1C)C1CCOCC1 [Example 44, (2S,4R)-1-((S)-2-(tert-butyl)-18-(4-((3′-(((4,6-dimethyl-2-oxo-1,2-dihydropyridine-3-yl)methyl)carbamoyl)-5′-(ethyl(tetrahydro-2H-pyran-4-yl)amino)-4′-methyl-[1,1′-biphenyl]-4-yl)methyl)piperazine-1-yl)-4,17-dioxo-7,10-dioxa-3,16-diazaoctadecanoyl)-4-hydroxy-N-(4-(4-methylthiazole-5-yl)benzyl)pyrrolidine-2-carboxamide]
%, degradation at 1 uM: 73.57%
Grade (percent value of the protein degradation when treated with 1 μM): B (key: A: >75%; B: 50-75%; C: 25-50%; D: <25%)

Reference: patent US12502434B2, “Compound comprising EZH2 inhibitor and E3 ligase binder and pharmaceutical composition for preventing or treating EZH2-associated disease comprising same as active ingredient” (DAEGU-GYEONGBUK MEDICAL INNOVATION FOUNDATION, priority 2019, dated 2025)
